## scFv variants of Ab-14 (light chain) against a SARS-CoV-2 spike peptide

Reference: Li et al. 2023, doi:10.1038/s41467-023-39022-2. File: FLAb, binding data.

Target: peptide PDVDLGDISGINAS, taken from heptad repeat 2 (HR2) of SARS-CoV-2 spike.

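Phage display of a naive human antibody library on the peptide gave the parent. These sequences belong to a second round, designed from the earlier measurements on random variants of the parent. Several design methods are mixed in this list. The scFvs were displayed on barcoded MATa yeast, the peptide on MATalpha yeast. Mating (16 h, 30 °C) was followed by selection of diploids and sequencing of their barcodes. Each replicate has its own calibration line, from reference interactions of the BCL2 family. Each pool was mated in six replicate cultures.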

Parent: Ab-14, a human scFv built as VH, a 15-residue (Gly4Ser)3 linker, VL. Only the CDRs of the light chain vary.
VH: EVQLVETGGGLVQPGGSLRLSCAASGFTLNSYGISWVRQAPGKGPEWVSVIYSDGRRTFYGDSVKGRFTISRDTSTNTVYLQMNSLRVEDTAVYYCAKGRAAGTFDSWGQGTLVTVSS
VL: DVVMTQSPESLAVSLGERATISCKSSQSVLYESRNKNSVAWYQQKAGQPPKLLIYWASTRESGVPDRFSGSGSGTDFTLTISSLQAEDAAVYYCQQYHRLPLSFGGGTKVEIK

The parent's light chain CDRs are KSSQSVLYESRNKNSVA, WASTRES, QQYHRLPLS; each variant's own CDRs replace them letter for letter. This list holds designs with more than six substitutions. Scale: log10 of Kd in nM, estimated from mating counts; low values are strong binders. A mean of the replicates is given; it leaves out those without a signal. "nd" means that the variant was in the library but no mating with the target was seen in that replicate; the authors take this as a sign of poor binding, and no number exists. In the paper, a design with two or fewer of six values counts as a poor binder. The range of this assay differs from that of the first round, and the authors advise against merging the two. Three control strains display no target. For all light chain designs, 4% of the pairings with them gave a signal, with a median of 2.64 and one signal in twenty below 1.59, so weak values seen in few replicates may be background.

The variant KITGQYRYESLSKNSIA | EAQTRLK | QQYHRLPLS gave 0.71, 0.67, 0.56, 0.36, 0.81, 0.94 (mean 0.68).
The variant KLSMTAEMELKNRNSVA | ELVTRMS | QQYNRLPLS gave 0.28, 0.00, -0.12, 0.11, 0.12, 0.38 (mean 0.13).
The variant KLSMTHEMEHVNRNSVA | ELVTRMS | QQYNRLPLS gave 0.87, 1.61, 1.00, 1.26, 1.27, 1.49 (mean 1.25).
The variant TLGDSTRMESRKKNSIA | DMSTRES | QQYHRLPLS gave 0.46, 0.15, 0.32, -0.06, 0.14, 0.44 (mean 0.24).
The variant KLQNFSQEHNGIWNSIA | DETMKHT | QHYDRLPLV gave 1.12, 1.43, 1.47, 2.84, 1.00, 1.06 (mean 1.49).
The variant KLQASQEYWSRNKNSVA | QASTRES | QQYHRLPLS gave -0.14, -0.31, -0.32, -0.49, -0.38, -0.29 (mean -0.32).
The variant HMSMLTLQGMYHRNSVA | QMTTREN | QQYDHLPLA gave 0.67, 1.20, 1.22, 1.29, 1.48, 1.11 (mean 1.16).
The variant KVSEFMKGLTMRKDSIA | DNNTRGA | QQYDRLPLS gave 0.58, 0.72, 1.04, 0.72, 0.63, 1.04 (mean 0.79).
The variant KWSWSWLLESRAKNSVA | NASLRES | QQYHRLPLS gave 0.53, 0.58, 0.28, 0.33, 0.43, 0.41 (mean 0.43).
The variant KMRVSALQGIYRSDSIA | STDIRVL | QQYHHLPLS gave 1.11, 0.70, 0.94, 0.56, 0.68, 1.03 (mean 0.84).
The variant KLWMSVLGESRNSNAVA | SASTREQ | QQYHRLPLS gave 1.31, 0.71, 0.54, 0.97, 0.67, 0.84 (mean 0.84).
The variant HISQMWFLESKNKNNVA | EENTRED | QSYFRLPLS gave 0.37, 0.13, -0.08, 0.24, 0.34, 0.31 (mean 0.22).
The variant TLGDVTRMESQKKNSIA | DMSNRAD | QQYHRLPLS gave 0.07, -0.06, -0.01, -0.04, -0.06, 0.11 (mean 0.00).
The variant IVSQLMLWGYHAKNSIA | EAQMRLN | QQYDRLPLF gave nd, nd, nd, 2.19, nd, nd.
The variant KMQNSNGYESRNKNSVA | QASTRMS | QQYHRLPLS gave 0.03, -0.20, -0.13, -0.33, -0.15, 0.00 (mean -0.13).
The variant KITGMWTFESRNKNSIA | EESTRED | QSYHRLPLS gave 1.00, 0.81, 0.87, 0.55, 0.80, 1.09 (mean 0.85).
The variant KLSILGLHESIDKKSIA | ERSTREN | QQYHRLPLS gave -0.02, 0.29, -0.22, -0.13, -0.10, 0.10 (mean -0.01).
The variant HMKDELGLGPQTYHSVA | HASILEP | QQYYRLPLM gave 1.27, 0.37, 0.76, 0.24, 0.58, 0.67 (mean 0.65).
The variant HMSMVTLSGMRHTNSVA | QMTTRVN | QQYDRLPLT gave 0.90, 0.61, 0.27, 0.41, 0.39, 1.29 (mean 0.64).
The variant IVSQLMLWGMHAKNSIA | EASTRIN | QQYERLPLF gave nd, nd, 2.28, 2.13, 1.58, 1.80 (mean 1.95).
The variant KLSQSWLGQSWNKNSVA | NASQREH | QQYHRLPLS gave 0.81, 1.47, 0.40, 1.59, 1.26, 1.28 (mean 1.13).
The variant IVSQLMLWGMHAKNSIA | EAEKRIN | QQYHRLPLI gave nd, 2.21, 2.95, 1.93, nd, 3.19 (mean 2.57).
The variant VFQQQWDGVTLTNSSVA | NVDERME | QQYNRLPLM gave 2.48, 2.52, 2.51, 2.33, 3.28, 2.75 (mean 2.65).
The variant MISQMFEGLSTSKNPVA | QVSTRLE | QQYHRLPLS gave nd, nd, nd, nd, 1.58, nd.
The variant KMQASNGYESRNKNAVA | QASTRES | QQYHRLPLS gave 0.25, 0.05, 0.40, 0.21, 0.34, 0.34 (mean 0.26).
The variant MMSQVTGMESHQRNNVA | QTSTRES | QQYDRLPLI gave 1.01, 1.16, 0.67, 0.54, 0.51, 0.43 (mean 0.72).
The variant QLLMATMQGQYNRNSVA | HAETRED | QSYHRLPLS gave nd, 2.04, 0.51, 1.77, 1.14, 2.00 (mean 1.49).
The variant KWEWSQLYESRNKNSVA | NASLRMS | QQYHRLPLS gave 0.48, 0.52, 0.52, 0.28, 0.38, 0.60 (mean 0.46).
The variant KISQMVRVGSTHMNSIA | EEATRAK | QQYHRLPLA gave nd, 0.05, -0.06, -0.09, 0.07, 0.61 (mean 0.12).
The variant RIQMTDLEGRTAWNNIA | DMEESYR | QQYVRLPLY gave 0.59, 1.03, 0.68, 2.00, 1.02, 1.27 (mean 1.10).
The variant KLRNDFMESKQNQSNIA | GHHESIK | QQYSMLPLS gave 1.37, 1.91, 2.04, 1.85, 1.92, 1.67 (mean 1.79).
The variant MLSDLVKFGSRNTNSVA | DNSTRGS | QQYDRLPLS gave nd, nd, 0.90, 1.21, 3.26, 2.44 (mean 1.95).
The variant KIGGVTNGISRSKNSVA | EQSTRES | QQYNRLPLS gave 0.96, 0.41, 0.75, 0.88, 0.59, 2.01 (mean 0.93).
The variant KLTSITGTEKVTGQNVA | EMETREN | QQYNRLPLS gave 0.15, -0.46, -0.07, 0.30, 0.09, 0.19 (mean 0.03).
The variant KVSEMSAFLSSNRNNVA | DNSTRGS | QQYHRLPLS gave 0.33, 0.62, 0.14, -0.01, 0.47, 0.59 (mean 0.35).
The variant MLTWGDDHTTGHQNSIA | HAHERNT | QQYAQLPLT gave 1.35, 0.73, 0.72, 0.51, 0.83, 1.03 (mean 0.86).
The variant KISINQSNYGGMRSAIA | NTNLARM | QQYYHLPLM gave 0.89, 0.96, 0.85, 0.93, 1.01, 0.90 (mean 0.92).
The variant VMQMDNDRANDATYAIA | DVTMREK | QQYNRLPLM gave 2.53, 2.36, 0.84, 1.56, nd, 1.94 (mean 1.85).
The variant TISGLIMMPSRNKNSVA | NTSTRYQ | QQYHRLPLS gave nd, nd, nd, nd, nd, nd.
The variant KLASVTGTEKVIGNNVA | EMETREK | QQYNRLPLS gave 0.61, 0.28, 0.51, 0.65, 0.29, 0.57 (mean 0.48).
The variant KFSQEVMMGDRNKNSVA | KASTRLS | QQYHRLPLS gave 0.86, 0.93, 1.19, 0.84, 1.22, 1.23 (mean 1.04).
The variant KSSPSQYYEDREFNSVA | NASQRES | QQYHRLPLS gave 0.61, 0.53, 0.49, 0.53, 0.68, 0.50 (mean 0.55).

The first 7 entries again:

CDR-L1,CDR-L2,CDR-L3,"replicates, log10 nM","log10 Kd (nM), mean"
KITGQYRYESLSKNSIA,EAQTRLK,QQYHRLPLS,"0.71, 0.67, 0.56, 0.36, 0.81, 0.94",0.68
KLSMTAEMELKNRNSVA,ELVTRMS,QQYNRLPLS,"0.28, 0.00, -0.12, 0.11, 0.12, 0.38",0.13
KLSMTHEMEHVNRNSVA,ELVTRMS,QQYNRLPLS,"0.87, 1.61, 1.00, 1.26, 1.27, 1.49",1.25
TLGDSTRMESRKKNSIA,DMSTRES,QQYHRLPLS,"0.46, 0.15, 0.32, -0.06, 0.14, 0.44",0.24
KLQNFSQEHNGIWNSIA,DETMKHT,QHYDRLPLV,"1.12, 1.43, 1.47, 2.84, 1.00, 1.06",1.49
KLQASQEYWSRNKNSVA,QASTRES,QQYHRLPLS,"-0.14, -0.31, -0.32, -0.49, -0.38, -0.29",-0.32
HMSMLTLQGMYHRNSVA,QMTTREN,QQYDHLPLA,"0.67, 1.20, 1.22, 1.29, 1.48, 1.11",1.16